Assay results published in patent US20180021288A1, “Neuroprotection in Demyelinating Diseases” (Biogen MA Inc., priority 2010, published 2018).

How the values were obtained:
[1] = tested on: Encephalomyocarditis virus (ECM); conditions: cited from earlier work
[2] = human, in vivo

For “AVONEX®: 166 amino acid glycoprotein produced by recombinant DNA technology in Chinese Hamster Ovary cells”, the “antiviral activity contained in 30 mcg” value ([1]; AVONEX 30 mcg) is given as “approximately 6 million IU” and the “specific activity (antiviral activity)” value ([1]; WHO natural interferon beta standard, Gb-23-902-531) is given as “approximately 200 million international units (IU) of antiviral activity per mg of Interferon beta-1a”.
In the case of “IM IFN-beta-1a: intramuscular (IM) IFN-beta-1a, single 30-μg injection”, the temperature and pulse [2] was “mild increase”.
